Each structure is given as a SMILES string. Only a part is listed here, and it is no random draw. Calls of active or inactive are those of the source. No stated cut-off is given here; in the data, active means inhibition above about 40%; inactive means the rest.

The chains behind the UniProt entries cited, without tags or fusion partners.
UniProt P61081, whole entry, looked up: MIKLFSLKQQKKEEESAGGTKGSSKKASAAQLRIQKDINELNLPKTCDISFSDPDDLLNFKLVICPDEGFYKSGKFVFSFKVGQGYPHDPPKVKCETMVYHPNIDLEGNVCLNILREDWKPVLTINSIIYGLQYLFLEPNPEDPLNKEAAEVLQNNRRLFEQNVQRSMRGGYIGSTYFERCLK
UniProt Q13564, whole entry, looked up: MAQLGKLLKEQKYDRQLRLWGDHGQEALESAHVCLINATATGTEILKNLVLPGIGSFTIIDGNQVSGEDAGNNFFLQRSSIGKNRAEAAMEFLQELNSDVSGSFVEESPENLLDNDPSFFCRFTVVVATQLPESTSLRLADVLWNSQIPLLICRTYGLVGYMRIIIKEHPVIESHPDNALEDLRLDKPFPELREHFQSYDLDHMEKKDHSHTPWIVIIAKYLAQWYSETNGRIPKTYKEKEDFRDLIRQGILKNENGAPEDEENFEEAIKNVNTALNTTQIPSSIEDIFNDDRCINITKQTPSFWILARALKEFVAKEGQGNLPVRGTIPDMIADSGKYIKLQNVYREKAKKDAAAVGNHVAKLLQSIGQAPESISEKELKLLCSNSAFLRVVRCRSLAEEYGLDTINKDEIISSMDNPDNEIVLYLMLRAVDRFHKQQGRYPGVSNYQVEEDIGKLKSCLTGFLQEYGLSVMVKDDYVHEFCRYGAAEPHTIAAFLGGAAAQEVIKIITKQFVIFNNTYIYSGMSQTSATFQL

This assay has as its target NEDD8-conjugating enzyme Ubc12 (Homo sapiens) + NEDD8-activating enzyme E1 regulatory subunit (Homo sapiens) (UniProt P61081+Q13564). Briefly: blockade of NEDD8 conjugation to cullin – biochemical, TR-FRET, single concentration, confirmation (AID 652217).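 Further: neddylation substrate is the cullin 1 ring ligase complex with SKP2.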 Particulars: TR-FRET cullin neddylation biochemical assay; at 25 µM; stronger effect = higher value. On the technique in general: TR-FRET usually uses a lanthanide donor and a delayed reading to cut background.
One may read the inhibition as how much of the control response was suppressed. For `COc1ccc(-c2ccccn2)cc1.O=[N+]([O-])c1cc([N+](=O)[O-])c(O)c([N+](=O)[O-])c1`, the inhibition is active: 46.4%.

Source of the values: PubChem BioAssay AID652217 (Sanford-Burnham Center for Chemical Genomics, 2013).
